Molecules are shown by their SMILES. The list shows a part of the results. Calls of active or inactive are those of the source.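 The calls were made as follows: active = activation factor of 2 or more at 20 µM, relative to plate controls; inactive = the rest.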

By UniProt entry, the sequences of proteins in these tests, tags left out.
UniProt P34949, whole entry: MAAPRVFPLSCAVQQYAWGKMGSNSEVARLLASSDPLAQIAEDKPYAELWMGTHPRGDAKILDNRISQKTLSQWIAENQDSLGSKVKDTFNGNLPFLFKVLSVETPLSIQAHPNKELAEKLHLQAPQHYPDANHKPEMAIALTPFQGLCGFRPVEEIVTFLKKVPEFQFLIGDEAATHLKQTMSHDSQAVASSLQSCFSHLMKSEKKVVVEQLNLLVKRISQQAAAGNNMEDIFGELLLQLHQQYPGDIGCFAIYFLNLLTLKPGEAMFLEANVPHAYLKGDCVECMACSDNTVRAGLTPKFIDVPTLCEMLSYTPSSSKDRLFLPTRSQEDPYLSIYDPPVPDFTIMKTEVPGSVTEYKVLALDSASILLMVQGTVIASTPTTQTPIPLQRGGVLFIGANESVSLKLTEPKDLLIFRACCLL

This assay has as its target Mannose-6-phosphate isomerase (Homo sapiens) (UniProt P34949). Briefly: activators of human PMI, primary screen, biochemical, fluorescence intensity, near-Km mannose 6-phosphate (AID 1214). Conditions: purified human PMI, coupled resazurin fluorescence, 20 min, at 20 µM; active compounds read high, 1 = vehicle control, 0 substrate-free wells. In general terms: The colour change of resazurin is a common sign of viable cells or microbes.
Turning to `Cc1cc(SC(NC(=O)c2ccccc2)C(Cl)(Cl)Cl)nc(C(C)C)n1` (configuration not stated), the activation factor result is “inactive”.

As for `COc1ccccc1OP(C)(=O)Nc1ccccc1` (configuration not stated), the activation factor entry was “inactive”.

Regarding `CP(=O)(Nc1ccccc1Br)Oc1ccccc1` (configuration not stated), the activation factor is inactive: 1.1.

Regarding `CP(=S)(Nn1cnnc1)Oc1ccccc1` (configuration not stated), the activation factor is inactive: 0.9. For `Cc1cc(C)cc(OP(C)(=O)Nc2ccc(SC(F)(F)F)cc2)c1` (configuration not stated) the value was inactive: 0.8.

Consider `CP(=O)(NC(=O)Nc1ccccc1)Oc1ccccc1` (configuration not stated), for which the activation factor entry was “inactive”. For `O=C(COc1ccccc1)OC1CN2CCC1CC2` (configuration not stated) the value was “inactive”; for `CP(=O)(Oc1ccccc1)OC(c1ccccc1)C(F)(F)F` (configuration not stated), “inactive”. To `Cc1cccc(C)c1OP(C)(=O)Nc1ccc(SC(F)(F)F)cc1` (configuration not stated) belongs inactive: 0.7.

As for `COP1(=S)c2c(C)nn(CCC#N)c2N=C(c2ccc(F)cc2)N1C` (configuration not stated), the activation factor entry was “inactive”. For `CP(=O)(Nc1ccccn1)Oc1ccc(Cl)cc1` (configuration not stated) the value was “inactive”. To `CCOP(C)(=S)SCC(=O)NC(C)C(=O)O` (configuration not stated) belongs inactive: 0.9; to `CCOC(=O)c1ccc(NP(C)(=O)Oc2ccc(OC)cc2)cc1` (configuration not stated), “inactive”. For `COc1ccc2nc(NP(=O)(c3ccccc3)c3ccccc3)sc2c1` the value was “inactive”; for `Cc1cc(=O)[nH]c(N[N+](=O)[O-])n1`, “inactive”.

Take `CCN(CC)CCCOC(=O)C(O)(c1ccccc1)c1ccccc1`: the activation factor is inactive: 1.1. With `COc1ccc(N/C(=N/P(=O)(N2CCOCC2)N2CCOCC2)N2CCOCC2)cc1`, the activation factor result was “inactive”. Turning to `Cc1cccc(C)c1OP(C)(N)=O` (configuration not stated), the activation factor was inactive: 1.5. For `CC(C)(C)c1ccc(OP(C)(=O)Nc2ccc(SC(F)(F)F)cc2)cc1` (configuration not stated) the value was inactive: 0.8; for `Cc1ccc2nc3c(c(C)c2c1)CC(C(Cl)Cl)S3` (configuration not stated), “inactive”. For `O=[N+]([O-])c1ccc2c(c1)C=Nc1ccccc1O2` the value was inactive: 0.3. For the molecule `COc1ccc(OP(C)(=O)Nc2cccc(F)c2)cc1` (configuration not stated), the activation factor result is “inactive”.

On to `CCN(CC)C(=S)SC(NC=O)C(Cl)(Cl)Cl` (configuration not stated), for which the activation factor entry was “inactive”. For `COc1ccccc1OP(C)(=O)Nc1cc(Cl)ccc1C` (configuration not stated) the value was “inactive”; for `Cc1cc(C)cc(OP(C)(N)=O)c1` (configuration not stated), “inactive”.

With `CCOC(=O)c1ccc(NP(C)(=O)Oc2ccccc2)cc1` (configuration not stated), the activation factor entry is “inactive”. For `Cc1ccc(NP(C)(=O)Oc2ccccc2)c(C)c1` (configuration not stated), the activation factor result was “inactive”. On to `COc1ccccc1OP(C)(=O)Nc1ccc(C)cc1` (configuration not stated), for which the activation factor is inactive: 0.9.

Take `O=P(Nc1nccs1)(Oc1ccccc1)Oc1ccccc1`: the activation factor entry was “inactive”. To `CCOP1(=S)c2c(C)nn(CCC#N)c2N=C(c2ccc(F)cc2)N1C` (configuration not stated) belongs “inactive”; to `CC1=NCCc2c1[nH]c1ccccc21.O=[N+]([O-])c1cc([N+](=O)[O-])c(O)c([N+](=O)[O-])c1`, “inactive”.

For the molecule `O=[N+]([O-])c1ccc2c(c1)nnn2O`, the activation factor result was “inactive”. To `Cc1cc(C)cc(OP(C)(=O)Nc2ccc(C)cc2C)c1` (configuration not stated) belongs inactive: 0.9; to `Cc1cccc(OCC(=O)OC2CN3CCC2CC3)c1` (configuration not stated), “inactive”. To `CCOC(=O)c1ccc(NP(C)(=O)Oc2cc(C)cc(C)c2)cc1` (configuration not stated) belongs “inactive”; to `COc1cc(C(=O)NCC2(N3CCOCC3)CCCCC2)cc(Cl)c1OC(C)C`, “inactive”; to `Cc1ccc(NCCc2c([N+](=O)[O-])cc([N+](=O)[O-])cc2[N+](=O)[O-])cc1`, “inactive”. For `CP(=O)(Nc1cccc(Br)c1)Oc1ccccc1` (configuration not stated) the value was inactive: 0.9. `Cc1cc(C)cc(OP(C)(=O)Nc2ccccn2)c1` (configuration not stated): the activation factor result is “inactive”. Consider `Cc1ccc(C)c(NP(C)(=O)Oc2ccccc2)c1` (configuration not stated), for which the activation factor result was “inactive”.

For `O=[N+]([O-])c1cc([N+](=O)[O-])c(-n2nnc3ccccc32)c([N+](=O)[O-])c1`, the activation factor result was “inactive”. Consider `CN(C(=O)Cc1ccc(Cl)c(Cl)c1)[C@@H]1CCCC[C@H]1N1CCCC1`, for which the activation factor entry was “inactive”. To `Cc1nc2ccc3ccccc3c2s1.O=[N+]([O-])c1cc([N+](=O)[O-])c(O)c([N+](=O)[O-])c1` belongs “inactive”; to `COc1cc(C2NCCC3(OCCO3)C2(C)C)cc(OC)c1OC.O=[N+]([O-])c1cc([N+](=O)[O-])c(O)c([N+](=O)[O-])c1` (configuration not stated), “inactive”; to `CP(=O)(Nc1ccc(SC(F)(F)F)cc1)Oc1ccccc1` (configuration not stated), inactive: 0.9. To `CCCOc1ccc(NP(C)(=O)Oc2ccc(Cl)cc2)cc1` (configuration not stated) belongs inactive: 0.9.

As for `O=P1(Nc2ccc(Br)cn2)COc2ccccc2OC1`, the activation factor result was “inactive”. To `CN1CCCCC1COC(=O)C1(O)c2ccccc2CCc2ccccc21` (configuration not stated) belongs inactive: 0.9; to `COc1ccccc1OP(C)(=O)Nc1c(C)cccc1C` (configuration not stated), inactive: 1.1.

In the case of `COc1ccc(NP(C)(=O)Oc2ccccc2OC)cc1` (configuration not stated), the activation factor result was “inactive”.

Consider `CN(C)CCOC(=O)C(O)(c1ccccc1)C1CCCCC1` (configuration not stated), for which the activation factor result was “inactive”. To `O=P(Nc1ccccn1)(c1ccc(Br)cc1)c1ccc(Br)cc1` belongs “inactive”; to `COc1ccc(OP(C)(=O)Nc2cccc(Br)c2)cc1` (configuration not stated), “inactive”. To `O=[N+]([O-])c1cc([N+](=O)[O-])c(NCC2CCS(=O)(=O)C2)c([N+](=O)[O-])c1` (configuration not stated) belongs inactive: 0.9; to `CC(=O)NC(SC(=S)N(C)C)C(Cl)(Cl)Cl` (configuration not stated), “inactive”. For `CCOP(C)(=S)SCC(=O)NC(C)(CC)C(=O)O` (configuration not stated) the value was inactive: 0.9. With `O=P(Nc1nccs1)(c1ccccc1)c1ccccc1`, the activation factor entry was “inactive”. To `CC(C)C(=O)NC(Sc1ccccc1)C(Cl)(Cl)Cl` (configuration not stated) belongs “inactive”; to `Cc1ccccc1NP(C)(=O)Nc1ccccc1C`, inactive: 0.9; to `CP(=O)(Nc1ccc2c(c1)OCCO2)Oc1ccccc1` (configuration not stated), “inactive”. For `CC(C)c1ccc(OP(C)(=O)Nc2ccc(SC(F)(F)F)cc2)cc1` (configuration not stated) the value was inactive: 0.7. On to `CC(C)(C)C(=O)NC(Sc1ccccc1)C(Cl)(Cl)Cl` (configuration not stated), for which the activation factor entry was “inactive”. For `CP(=O)(Nc1ccccc1F)Oc1ccccc1` (configuration not stated) the value was “inactive”. For `CCOc1ccc(C2=NCC(CBr)S2)cc1` (configuration not stated) the value was “inactive”; for `O=C(OCCN1CCN(CCOCc2ccccc2)CC1)C(O)(c1ccccc1)c1ccccc1`, inactive: 1.3.

In the case of `COc1ccc(OP(C)(=O)Nc2ccc(SC(F)(F)F)cc2)cc1` (configuration not stated), the activation factor is inactive: 1.1. To `CCOC(=O)c1ccc(NP(C)(=O)Oc2ccc(F)cc2)cc1` (configuration not stated) belongs “inactive”. For `CCOC(=O)NC(Sc1ccccc1)C(Cl)(Cl)Cl` (configuration not stated) the value was “inactive”. For `CCNC(=S)/N=C(\N)N[N+](=O)[O-]` the value was “inactive”; for `O=c1c2cc([N+](=O)[O-])ccc2[nH]c2c([N+](=O)[O-])cc([N+](=O)[O-])cc12`, “inactive”; for `CP(=O)(Nc1ccccc1)Oc1ccc(F)cc1` (configuration not stated), “inactive”.

With `CCN(CC)CCCOC(=O)C(O)(c1ccccc1)C1CCCCC1` (configuration not stated), the activation factor is inactive: 1.2.

(Values after PubChem BioAssay AID1214 (Sanford-Burnham Center for Chemical Genomics, 2008).)
